SMILES strings stand for the structures. The list shows a part of the results, in another mix than the full data. Activity calls are given as the source filed them.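 The calls were made as follows: active = over 50% inhibition of tissue-nonspecific alkaline phosphatase at 20 µM in the single-dose screen; inactive = the rest.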

Sequences of proteins named here, by UniProt entry; tags and fusion partners are left off. A change or cut given only in a name is not applied to a line headed by its entry.
UniProt P05186: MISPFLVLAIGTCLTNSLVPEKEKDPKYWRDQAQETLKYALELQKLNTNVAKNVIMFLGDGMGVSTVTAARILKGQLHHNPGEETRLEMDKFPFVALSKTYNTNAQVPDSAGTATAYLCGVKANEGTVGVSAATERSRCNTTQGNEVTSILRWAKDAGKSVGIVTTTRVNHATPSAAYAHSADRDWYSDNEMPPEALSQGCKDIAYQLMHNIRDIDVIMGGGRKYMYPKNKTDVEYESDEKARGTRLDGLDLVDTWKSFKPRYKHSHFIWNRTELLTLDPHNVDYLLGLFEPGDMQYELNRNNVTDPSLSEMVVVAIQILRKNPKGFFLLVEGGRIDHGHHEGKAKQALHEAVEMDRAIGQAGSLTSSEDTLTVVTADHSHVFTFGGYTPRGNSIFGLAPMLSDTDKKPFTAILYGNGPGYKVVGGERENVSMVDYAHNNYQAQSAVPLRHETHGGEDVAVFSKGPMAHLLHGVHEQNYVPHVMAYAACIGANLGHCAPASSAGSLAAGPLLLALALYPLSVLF

Consider 78 compounds from PubChem BioAssay AID1135 (Sanford-Burnham Center for Chemical Genomics, 2008).

This test addresses Alkaline phosphatase, tissue-nonspecific isozyme (Homo sapiens) (UniProt P05186). The test is described as follows: human TNAP enzyme inhibitors, primary screen, biochemical, luminescent, high phosphate acceptor level, uHTS (AID 1135).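 Also: plate controls were DMSO wells for no effect and EDTA-quenched wells as full inhibition for full effect.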 The following applies: purified TNAP, CDP-star luminescence, 1 M DEA; at 20 µM; hits give high values.
One may read the inhibition as the change of the read-out against control, counted positive when it falls. On to `O=[N+]([O-])c1ccc2c(c1)nnn2O`, for which the inhibition was inactive: -6.9%. As for `CCOP1(=S)c2c(C)nn(CCC#N)c2N=C(c2ccc(F)cc2)N1C` (stereo not drawn), the figure is inactive: -2.3%; as for `O=P(Nc1nccs1)(c1ccccc1)c1nc2ccccc2s1` (stereo not drawn), inactive: -0.1%; as for `O=P(Nc1nccs1)(Oc1ccccc1)Oc1ccccc1`, inactive: -3%.

Consider `CCOP1(=S)c2c(C)nn(CCC#N)c2N=C(c2ccccc2F)N1C` (stereo not drawn), for which the inhibition was inactive: -5.4%. Regarding `CCOP(=O)(Nc1cccc2ccccc12)OCC`, the inhibition was inactive: 0%. For the compound `COc1cc(C2NCCC3(OCCO3)C2(C)C)cc(OC)c1OC` (stereo not drawn), the inhibition was inactive: -3.7%.

In the case of `Cc1ccc(NCCc2c([N+](=O)[O-])cc([N+](=O)[O-])cc2[N+](=O)[O-])cc1`, the inhibition was inactive: 20%. As to `Cc1cccc(OCC(=O)OC2CN3CCC2CC3)c1` (stereo not drawn), the inhibition was inactive: -3.8%. As for `COc1cc(C(=O)NCC2(N3CCOCC3)CCCCC2)cc(Cl)c1OC(C)C`, the figure is inactive: -2.2%; as for `CC(C)/C=N\N=C(\N)N[N+](=O)[O-]`, inactive: -2.5%; as for `CN(C(=O)Cc1ccc(Cl)c(Cl)c1)[C@@H]1CCCC[C@H]1N1CCCC1`, inactive: -7.6%.

Consider `Clc1n[nH]nc1-c1nn[nH][15n]1`, for which the inhibition is inactive: -4.2%.

`O=P1(Nc2ccccn2)COc2ccccc2OC1`: the inhibition is inactive: 0.6%.

On to `O=P1(Nc2ccc(Br)cn2)COc2ccccc2OC1`, for which the inhibition is inactive: -6.5%.

For the compound `Cc1ccc(OCC(=O)OC2CN3CCC2CC3)cc1` (stereo not drawn), the inhibition was inactive: 0.3%. As for `O=P1(Nc2ncccn2)COc2ccccc2OC1`, the figure is inactive: 1.9%; as for `CN(C)C1(CNC(=O)c2ccc(S(C)(=O)=O)cc2)CCCCC1`, inactive: -7.7%; as for `CC1CCC(C(C)C)C(OP(=O)(Nc2ccccn2)c2ccccc2)C1` (stereo not drawn), inactive: -5.3%.

Consider `Cc1nn(-c2ccccc2)c2c1P(=O)(N1CCOCC1)N(C)C(c1ccccc1)=N2` (stereo not drawn), for which the inhibition is inactive: -4.8%.

Consider `O=P(Nc1ccccn1)(c1cccc2ccccc12)c1cccc2ccccc12`, for which the inhibition was inactive: -3.8%.

Turning to `Cc1cc(SC(NC=O)C(Cl)(Cl)Cl)ncn1` (stereo not drawn), the inhibition is inactive: -1.9%. With `Cc1cc(SC(NC(=O)c2ccccc2)C(Cl)(Cl)Cl)nc(C(C)C)n1` (stereo not drawn), the inhibition was inactive: 0.1%.

`CCC(C)N(CC(C)C)C(=S)SC(NC(C)=O)C(Cl)(Cl)Cl` (stereo not drawn): the inhibition was inactive: -6.5%. As for `O=C(COc1ccccc1)OC1CN2CCC1CC2` (stereo not drawn), the figure is inactive: -3.1%; as for `COP1(=S)c2c(C)nn(CCC#N)c2N=C(c2ccc(F)cc2)N1C` (stereo not drawn), inactive: -8.6%. Take `COc1ccc(N/C(=N/P(=O)(N2CCOCC2)N2CCOCC2)N2CCOCC2)cc1`: the inhibition is inactive: -1%. Consider `COc1ccc2nc(NP(=O)(c3ccccc3)c3ccccc3)sc2c1`, for which the inhibition was inactive: -7.1%. For `Cc1cc(=O)[nH]c(N[N+](=O)[O-])n1`, the inhibition is inactive: 1.6%. As for `O=C(OC1CN2CCC1CC2)C12CC3CC(CC(C3)C1)C2` (stereo not drawn), the figure is inactive: -6.6%; as for `O=[N+]([O-])c1cc([N+](=O)[O-])c(-c2ccn[nH]2)s1`, inactive: 6.8%; as for `CCN(CC)C(=S)SC(NC=O)C(Cl)(Cl)Cl` (stereo not drawn), inactive: -2.9%. For the compound `CC(C)NC(=O)NP(=O)(Oc1ccccc1)Oc1ccccc1`, the inhibition is inactive: 0.5%.

On to `ClCCSc1nnc(-c2cccnc2)o1`, for which the inhibition is inactive: 0.3%. For `Cc1ccc2nc3c(c(C)c2c1)CC(C(Cl)Cl)S3` (stereo not drawn), the inhibition is inactive: -4%. The result for `CCN(N=Nc1nonc1N)c1nonc1N` reads inactive: -4.8%. On to `CCOP(=O)(Nc1ccccc1)OCC`, for which the inhibition is inactive: 0%. As for `Cc1cc(SC(NC(=O)c2ccc(F)cc2)C(Cl)(Cl)Cl)ncn1` (stereo not drawn), the figure is inactive: -1.8%. For `CC(C)CC(=O)NC(Sc1ccc(Cl)cc1)C(Cl)(Cl)Cl` (stereo not drawn), the inhibition is inactive: 0.8%. The result for `Cc1c2non([O-])c-2c(C)[n+](=O)[n+]1[O-]` reads inactive: 3.6%; that for `O=C(NC(Sc1ccncn1)C(Cl)(Cl)Cl)c1ccccc1` (stereo not drawn), inactive: 0%. With `Oc1ccccc1CNc1ccccn1`, the inhibition was inactive: -3.8%. The result for `COc1ccccc1OP(=O)(Nc1ccc(C)cn1)Oc1ccccc1OC` reads inactive: -4.5%; that for `Clc1ccc(Cl)c(NC2=NCC(CBr)S2)c1` (stereo not drawn), inactive: -4.8%; that for `CN1CCCC(OC(=O)C(c2ccccc2)c2ccccc2)C1` (stereo not drawn), inactive: -0.3%.

Regarding `NC(=O)c1cc([N+](=O)[O-])cc([N+](=O)[O-])c1N`, the inhibition was inactive: 1.8%. On to `Cc1ccc(N/C(=N/P(=O)(N2CCOCC2)N2CCOCC2)N2CCOCC2)cc1`, for which the inhibition was inactive: -3%. As to `CN(C)C(=O)OCCc1n(C)cc[n+]1C`, the inhibition is inactive: 0.2%. As for `CC(C)=N/N=C(\N)N[N+](=O)[O-]`, the figure is inactive: -5.6%. The result for `CC1CCN(C(=O)Oc2c(Cl)cc(Cl)c3cccnc23)CC1` reads inactive: -7.9%; that for `CCN(/C(=N/P(=O)(N1CCOCC1)N1CCOCC1)N1CCOCC1)c1ccc(OC)cc1`, inactive: -2.5%. As for `O=[N+]([O-])c1cccc2n[nH]nc12`, the figure is inactive: -3.2%. With `CC(=O)N1C2C3N(C(C)=O)C1C1N(C(C)=O)C(C(N1C(C)=O)N3C(C)=O)N2C(C)=O`, the inhibition is inactive: -2%. As for `CCc1nc2c(n1)c1c(non1O)c1c2no[n+]1[O-]`, the figure is inactive: -6.7%; as for `O=[N+]([O-])c1cc([N+](=O)[O-])c(CCNc2ccccc2)c([N+](=O)[O-])c1`, inactive: 12.5%; as for `Cc1ccc(NP(=O)(Oc2ccccc2)Oc2ccccc2)nc1`, inactive: -1.5%. In the case of `COc1ccc(C2=NCC(CBr)S2)cc1` (stereo not drawn), the inhibition is inactive: 0.4%. For the compound `O=[N+]([O-])c1ncn(CCn2ncnc2[N+](=O)[O-])n1`, the inhibition is inactive: 1.8%. As for `C(Cc1nn[nH]n1)Cc1nn[nH]n1`, the figure is inactive: -7.2%; as for `O=C(OC1CN2CCC1CC2)c1cccc(Cl)c1` (stereo not drawn), inactive: -4.3%. For the compound `CC(=O)NC(SC(=S)N(C)C)C(Cl)(Cl)Cl` (stereo not drawn), the inhibition is inactive: 2.1%. As to `O=P(Nc1ccccn1)(c1ccc(Br)cc1)c1ccc(Br)cc1`, the inhibition is inactive: 0%. The result for `c1nnnn1CCn1cnnn1` reads inactive: -4.6%; that for `CC(C)C(=O)NC(Sc1ccccc1)C(Cl)(Cl)Cl` (stereo not drawn), inactive: -1.6%; that for `O=P(Nc1nccs1)(c1ccccc1)c1ccccc1`, inactive: 2.9%. As for `CC(=O)Nc1ccc(Oc2c([N+](=O)[O-])cc([N+](=O)[O-])cc2[N+](=O)[O-])cc1`, the figure is inactive: 0.5%; as for `CC(C)(C)C(=O)NC(Sc1ccccc1)C(Cl)(Cl)Cl` (stereo not drawn), inactive: -1.2%. As for `CCOc1ccc(C2=NCC(CBr)S2)cc1` (stereo not drawn), the figure is inactive: -1.1%; as for `O=P1(Nc2nc3ccc(Cl)cc3s2)COc2ccccc2O1` (stereo not drawn), inactive: -0.7%. Regarding `O=c1c2cc([N+](=O)[O-])ccc2[nH]c2c([N+](=O)[O-])cc([N+](=O)[O-])cc12`, the inhibition was inactive: 31.4%. As for `CC(=O)NC(SC(=S)N(CC(C)C)CC(C)C)C(Cl)(Cl)Cl` (stereo not drawn), the figure is inactive: -2.2%; as for `Cc1ccc(OP(=O)(Nc2ccccn2)Oc2ccc(C)cc2)cc1`, inactive: 1.1%; as for `COC(=O)c1cc2c(s1)N=C(c1ccccc1)N(C)P2(=O)N1CCOCC1` (stereo not drawn), inactive: -3.3%. As for `CCC(=O)N1C2C3N(C(=O)CC)C1C1N(C(=O)CC)C(C(N1C(=O)CC)N3C(=O)CC)N2C(=O)CC`, the figure is inactive: -2.2%; as for `CCNC(=S)/N=C(\N)N[N+](=O)[O-]`, inactive: -1.5%. `O=C(NC1CCS(=O)(=O)C1)NP(=S)(Oc1ccccc1)Oc1ccccc1` (stereo not drawn): the inhibition is inactive: -3.2%. As for `CCOC(=O)NC(Sc1ccccc1)C(Cl)(Cl)Cl` (stereo not drawn), the figure is inactive: 0.3%; as for `c1ccc(-c2nn[nH]n2)c(-c2nn[nH]n2)c1`, inactive: -2.4%.
